# scFv variants of Ab-14 (light chain) against a SARS-CoV-2 spike peptide

Antigen: PDVDLGDISGINAS, a 14-residue peptide of the SARS-CoV-2 spike HR2 region.

The variants keep the heavy chain, the linker and the frameworks of Ab-14 (scFv order VH, three GGGGS repeats, VL).
VH: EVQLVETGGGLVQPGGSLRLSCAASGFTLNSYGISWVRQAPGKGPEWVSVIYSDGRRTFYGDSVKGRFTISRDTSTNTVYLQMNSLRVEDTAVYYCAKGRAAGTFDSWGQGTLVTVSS
VL: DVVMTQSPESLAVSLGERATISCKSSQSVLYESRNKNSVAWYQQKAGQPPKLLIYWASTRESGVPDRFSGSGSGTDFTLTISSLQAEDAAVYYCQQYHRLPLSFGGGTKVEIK

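This is the validation round: designs drawn from the data on random variants, tested in the same kind of assay. Their group label is 14L_Ctrl (Ctrl: baseline library sampled from a position-specific scoring matrix, with some repeated check sequences). The assay is AlphaSeq: two haploid yeast populations carry antibody and antigen on their surface. Pairs that bind mate more often; barcode pairs of the diploids are counted by sequencing. Each replicate has its own calibration line, from reference interactions of the BCL2 family. Each pool was mated in six replicate cultures.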

Sequences are complete VL domains.
Scale: log10 of Kd in nM, estimated from mating counts; low values are strong binders.
Where no diploid with the target was found in that replicate, the entry reads "n.d.": below detection, most likely a poor binder, though not proof of it.
The parent sequence was in this pool as ten entries: three were never detected, three once, and four in most replicates, with averages from 0.34 to 2.37.

VL,"replicates, log10 nM",control signals
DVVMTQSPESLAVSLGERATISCKSSQSVLYEQRNKNSVAWYQQKAGQPPKLLIYQASTRESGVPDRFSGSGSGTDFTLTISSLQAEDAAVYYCQQYHRLPLSFGGGTKVEIK,1.73 1.01 1.23 1.87 0.96 0.91,1/18 (1.40)
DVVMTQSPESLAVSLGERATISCKLSQSVTYESRNKNSVAWYQQKAGQPPKLLIYWATTRESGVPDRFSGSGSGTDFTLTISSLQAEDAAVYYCQQYHRLPLSFGGGTKVEIK,0.97 1.11 0.46 0.24 0.66 0.53,1/18 (1.94)
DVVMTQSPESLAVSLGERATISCKSSQGVLYESRNKNSVAWYQQKAGQPPKLLIYWASTRESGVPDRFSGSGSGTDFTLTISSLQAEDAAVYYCQQYHRLPLSFGGGTKVEIK,2.07 1.41 n.d. 2.38 1.87 1.61,0/18
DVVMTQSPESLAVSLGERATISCKFMQSVLYESRNKNSVAWYQQKAGQPPKLLIYWASTRESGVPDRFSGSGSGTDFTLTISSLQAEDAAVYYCQQYHRLPLSFGGGTKVEIK,1.02 0.84 1.06 1.58 1.65 1.69,1/18 (2.27)
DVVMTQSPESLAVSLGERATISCKSSQSVLKEYRNKNSVAWYQQKAGQPPKLLIYWASTRESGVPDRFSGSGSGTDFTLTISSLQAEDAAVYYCQQYHRLPLSFGGGTKVEIK,n.d. n.d. n.d. n.d. n.d. n.d.,1/18 (1.86)
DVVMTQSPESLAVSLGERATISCKVSQSVLYESRNKNSVAWYQQKAGQPPKLLIYQASTRESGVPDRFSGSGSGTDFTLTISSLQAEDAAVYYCQQYHRLPLFFGGGTKVEIK,-0.26 -0.37 -0.29 -0.36 -0.31 -0.30,3/18 (3.02)
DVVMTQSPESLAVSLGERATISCKFSQSVLYESRNNNSVAWYQQKAGQPPKLLIYWASTRERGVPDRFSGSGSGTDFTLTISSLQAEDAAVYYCQQYHRLPLSFGGGTKVEIK,1.21 1.26 1.13 1.10 1.28 1.31,5/18 (3.51)
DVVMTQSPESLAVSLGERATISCKSSQSVLMESRNKNSVAWYQQKAGQPPKLLIYNASIRESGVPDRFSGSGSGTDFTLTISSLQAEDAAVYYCQQIHRTPLSFGGGTKVEIK,n.d. n.d. n.d. n.d. n.d. n.d.,0/18
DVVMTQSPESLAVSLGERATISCKLSQSVLYESYNKNSVAWYQQKAGQPPKLLIYEASTRESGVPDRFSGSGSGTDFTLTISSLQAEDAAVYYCQQYHRLPLSFGGGTKVEIK,-0.28 -0.20 -0.52 -0.24 -0.53 -0.06,2/18 (2.45)
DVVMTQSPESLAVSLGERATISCKMSDSVLYESRNKNSVAWYQQKAGQPPKLLIYWASERESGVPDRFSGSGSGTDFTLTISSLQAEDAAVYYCQQYHRLPLQFGGGTKVEIK,0.88 0.92 0.85 1.58 1.54 1.26,1/18 (1.71)
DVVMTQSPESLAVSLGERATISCKQSQSILYESRNLNSVAWYQQKAGQPPKLLIYKASTRESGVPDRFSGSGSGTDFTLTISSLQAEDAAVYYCQSYTRLPLSFGGGTKVEIK,1.30 1.63 1.30 0.98 1.54 1.85,0/18
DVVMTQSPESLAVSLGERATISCKTSQSVLYESQNKNSVAWYQQKAGQPPKLLIYWASTRESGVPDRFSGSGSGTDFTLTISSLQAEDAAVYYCQRYHRLPLSFGGGTKVEIK,0.95 1.07 n.d. 1.18 0.97 1.28,1/18 (2.09)
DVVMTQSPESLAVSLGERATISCKLSQSGLTESRNKNSVAWYQQKAGQPPKLLIYWASTRRSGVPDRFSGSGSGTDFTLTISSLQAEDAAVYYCQQYHRLPLSFGGGTKVEIK,2.45 1.81 1.18 1.96 1.71 1.08,0/18
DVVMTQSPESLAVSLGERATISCKSSQSVLGESRNKNSVAWYQQKAGQPPKLLIYGASTRERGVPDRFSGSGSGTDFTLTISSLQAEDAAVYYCQQYHRLPLSFGGGTKVEIK,0.87 0.92 0.59 0.78 0.96 0.81,2/18 (3.28)

The 2 strongest on average among those seen in every replicate, once more:

VL	replicates, log10 nM	control signals
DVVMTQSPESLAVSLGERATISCKVSQSVLYESRNKNSVAWYQQKAGQPPKLLIYQASTRESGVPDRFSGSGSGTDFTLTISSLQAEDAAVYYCQQYHRLPLFFGGGTKVEIK	-0.26 -0.37 -0.29 -0.36 -0.31 -0.30	3/18 (3.02)
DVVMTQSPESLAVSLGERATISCKLSQSVLYESYNKNSVAWYQQKAGQPPKLLIYEASTRESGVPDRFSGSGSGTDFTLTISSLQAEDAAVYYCQQYHRLPLSFGGGTKVEIK	-0.28 -0.20 -0.52 -0.24 -0.53 -0.06	2/18 (2.45)

Background: pairings of all light chain designs with three empty control strains gave a value in 4% of cases (median 2.64, 5th percentile 1.59). Values in that range, when seen in few replicates, are hard to tell from nonspecific mating. For each scFv, signals with the empty controls are counted beside the result, with their mean in brackets.
The authors averaged sequences with at least three values out of six and counted those with two or fewer as poor binders.
A sequence measured in both rounds can read differently, since the two assays cover different ranges.

Data: MIT Lincoln Laboratory AlphaSeq set, Li et al. 2023, doi:10.1038/s41467-023-39022-2, as distributed in FLAb.